Assay results: US7176219B2, “Salts of quinuclidine derivative” (priority 2005, dated 2007)

Experiments:
[1] = Evaluation of stability (1): forced degradation test, impurities by LC
Description: A sample after storage was dissolved in 1 mL of MeOH and used as a sample solution. The sample solution was diluted 100 times with MeOH and used as a standard solution. Impurities contained in the sample solution was quantitatively analyzed using the standard solution. In this determination, the apparatus including data processing was operated according to the method and procedure directed in each device. (Apparatus: LC-MSD 1100 series, made by Agilent)

[2] = Evaluation of hygroscopicity (dynamic steam adsorption, weight change); format: physicochemical; conditions: 25° C., within the range 5–95% relative humidity
Description: A sample (about 5 mg) was placed in a purpose-made quartz holder, and the sample weight at the respective humidity was continuously measured and recorded in the following conditions. The apparatus including data processing was operated according to the method and procedure directed in each device. (Apparatus: dynamic steam adsorption measuring apparatus DVS Advantage, made by SMS)

(−)-(3R)-quinuclidin-3-yl(1R)-1-phenyl-1,2,3,4-tetrahydroisoquinoline-2-carboxylate cyclohexanesulfamate [Example 6]
Change from Impurity Amt. before Storage (%), Condition 3 ([1]; 25° C., NUV (near ultraviolet ray) irradiated, tightly closed, 5 days): 0.1% | Change from Impurity Amt. before Storage (%), Condition 2 ([1]; 25° C., relative humidity 93%, open, 5 days): 0.0% | Change from Impurity Amt. before Storage (%), Condition 1 ([1]; 120° C., tightly closed, 24 hours): 8.1% | Increase of impurities under heat ([1]; Condition 1 of Test Example 2 (stability test to heat)): increase of impurities | Impurities before Storage (%) ([1]; before storage): 1.4% | Weight Change (%) [2]: <3%
